Here are results for 1 compound from ChEMBL document CHEMBL1140703, “Design, synthesis, and biological evaluation of classical and nonclassical 2-amino-4-oxo-5-substituted-6-methylpyrrolo[3,2-d]pyrimidines as dual thymidylate synthase and dihydrofolate reductase inhibitors” (J Med Chem, 2008).

Each structure is given as a SMILES string.

The nature of the experiment: Inhibition of Toxoplasma gondii DHFR.

Broadly, the IC50 is the concentration that gives 50% inhibition. A high value points to weaker potency in that assay. `Nc1nc2[nH]cc(CCc3ccc(C(=O)N[C@@H](CCC(=O)O)C(=O)O)cc3)c2c(=O)[nH]1` [PEMETREXED] gave an IC50 of 430 nM.
